Measured values taken from PubChem BioAssay (NCATS).
Only a part is listed here, and it is no random draw. Records with an inconclusive call do not appear. The source made the active and inactive calls. Unless noted, calls come from the whole dose curve; as a rule, active = well fitted curve in the direction sought with a large enough effect; inconclusive = small, poorly fitted or top-dose-only effect, or another doubt; inactive = no such curve, though single readings can be large; an effect the other way counts as inactive or inconclusive.

The chains behind the UniProt entries cited, without tags or fusion partners. Where a name states a change or a piece, a line headed by the entry shows the natural chain unless it says otherwise.
UniProt P16066: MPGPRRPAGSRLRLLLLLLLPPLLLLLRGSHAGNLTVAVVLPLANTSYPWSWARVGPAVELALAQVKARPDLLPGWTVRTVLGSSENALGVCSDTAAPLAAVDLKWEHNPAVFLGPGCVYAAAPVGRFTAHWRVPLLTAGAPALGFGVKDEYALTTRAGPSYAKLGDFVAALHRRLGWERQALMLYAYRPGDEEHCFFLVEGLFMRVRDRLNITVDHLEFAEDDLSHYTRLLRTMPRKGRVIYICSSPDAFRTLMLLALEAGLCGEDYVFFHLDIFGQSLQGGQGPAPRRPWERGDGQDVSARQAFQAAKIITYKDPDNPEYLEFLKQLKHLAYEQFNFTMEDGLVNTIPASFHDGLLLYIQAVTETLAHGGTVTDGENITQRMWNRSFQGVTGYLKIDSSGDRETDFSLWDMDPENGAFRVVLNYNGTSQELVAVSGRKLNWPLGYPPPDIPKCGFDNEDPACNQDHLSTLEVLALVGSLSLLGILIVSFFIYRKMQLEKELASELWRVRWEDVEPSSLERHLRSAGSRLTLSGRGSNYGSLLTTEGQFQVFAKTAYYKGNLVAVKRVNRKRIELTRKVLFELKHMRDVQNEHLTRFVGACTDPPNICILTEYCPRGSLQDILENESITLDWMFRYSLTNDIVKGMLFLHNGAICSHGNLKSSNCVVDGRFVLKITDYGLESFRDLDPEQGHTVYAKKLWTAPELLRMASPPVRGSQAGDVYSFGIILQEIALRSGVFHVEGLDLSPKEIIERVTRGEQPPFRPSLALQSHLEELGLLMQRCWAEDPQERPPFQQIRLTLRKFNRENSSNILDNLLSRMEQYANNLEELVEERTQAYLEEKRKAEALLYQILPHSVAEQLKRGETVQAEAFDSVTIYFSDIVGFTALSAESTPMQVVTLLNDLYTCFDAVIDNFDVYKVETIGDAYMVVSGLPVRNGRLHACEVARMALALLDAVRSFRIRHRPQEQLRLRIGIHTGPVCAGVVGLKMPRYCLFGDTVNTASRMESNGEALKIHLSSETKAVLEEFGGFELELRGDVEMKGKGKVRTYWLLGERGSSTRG
UniProt P20594: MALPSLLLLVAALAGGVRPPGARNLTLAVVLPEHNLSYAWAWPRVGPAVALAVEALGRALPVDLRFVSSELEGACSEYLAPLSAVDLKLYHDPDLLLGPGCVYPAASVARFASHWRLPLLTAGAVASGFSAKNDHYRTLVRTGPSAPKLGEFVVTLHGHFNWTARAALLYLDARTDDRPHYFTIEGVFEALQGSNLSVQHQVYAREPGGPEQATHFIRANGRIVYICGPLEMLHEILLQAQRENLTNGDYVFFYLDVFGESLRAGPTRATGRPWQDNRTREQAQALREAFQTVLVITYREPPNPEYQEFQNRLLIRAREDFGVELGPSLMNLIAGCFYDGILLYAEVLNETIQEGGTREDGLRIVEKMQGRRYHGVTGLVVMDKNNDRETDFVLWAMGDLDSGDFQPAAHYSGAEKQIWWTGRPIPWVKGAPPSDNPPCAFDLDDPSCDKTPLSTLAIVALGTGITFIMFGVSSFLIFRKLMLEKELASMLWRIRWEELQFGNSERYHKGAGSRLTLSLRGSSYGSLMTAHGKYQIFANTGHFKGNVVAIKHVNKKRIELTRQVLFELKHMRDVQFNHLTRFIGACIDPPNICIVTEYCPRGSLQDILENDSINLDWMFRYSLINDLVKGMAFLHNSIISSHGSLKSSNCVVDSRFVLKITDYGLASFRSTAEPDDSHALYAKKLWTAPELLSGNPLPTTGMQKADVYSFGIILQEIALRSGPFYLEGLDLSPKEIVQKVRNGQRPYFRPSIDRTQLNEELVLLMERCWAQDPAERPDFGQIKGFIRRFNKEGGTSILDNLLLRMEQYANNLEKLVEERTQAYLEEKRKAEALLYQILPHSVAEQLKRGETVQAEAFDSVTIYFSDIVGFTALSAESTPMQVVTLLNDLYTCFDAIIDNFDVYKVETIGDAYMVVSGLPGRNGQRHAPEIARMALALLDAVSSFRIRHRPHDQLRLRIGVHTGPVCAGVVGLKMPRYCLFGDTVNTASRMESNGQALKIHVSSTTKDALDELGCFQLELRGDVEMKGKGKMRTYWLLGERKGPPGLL
UniProt P78324, whole entry, looked up: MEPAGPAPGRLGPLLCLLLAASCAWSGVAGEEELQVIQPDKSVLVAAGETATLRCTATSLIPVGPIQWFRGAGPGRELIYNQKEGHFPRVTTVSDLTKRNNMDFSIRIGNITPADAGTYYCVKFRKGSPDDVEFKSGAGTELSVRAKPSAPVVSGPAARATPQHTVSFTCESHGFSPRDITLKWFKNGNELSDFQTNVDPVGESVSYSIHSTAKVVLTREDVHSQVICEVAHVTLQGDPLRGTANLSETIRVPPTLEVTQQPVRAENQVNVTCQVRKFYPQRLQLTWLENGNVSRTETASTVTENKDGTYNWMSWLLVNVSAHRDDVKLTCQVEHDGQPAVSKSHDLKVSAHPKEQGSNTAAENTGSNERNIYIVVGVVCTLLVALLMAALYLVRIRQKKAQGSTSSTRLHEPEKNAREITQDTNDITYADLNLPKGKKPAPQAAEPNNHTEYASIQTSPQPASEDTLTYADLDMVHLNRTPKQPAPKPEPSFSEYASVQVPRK
UniProt Q08722, whole entry, looked up: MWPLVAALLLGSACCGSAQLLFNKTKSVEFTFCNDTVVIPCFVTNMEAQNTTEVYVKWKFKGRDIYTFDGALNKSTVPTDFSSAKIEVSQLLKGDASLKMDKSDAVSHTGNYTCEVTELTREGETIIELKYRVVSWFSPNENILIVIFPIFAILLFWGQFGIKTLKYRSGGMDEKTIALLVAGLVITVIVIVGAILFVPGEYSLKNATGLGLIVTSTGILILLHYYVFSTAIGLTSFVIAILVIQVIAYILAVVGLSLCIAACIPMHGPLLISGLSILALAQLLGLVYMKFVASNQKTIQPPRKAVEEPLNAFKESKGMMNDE
UniProt Q03431: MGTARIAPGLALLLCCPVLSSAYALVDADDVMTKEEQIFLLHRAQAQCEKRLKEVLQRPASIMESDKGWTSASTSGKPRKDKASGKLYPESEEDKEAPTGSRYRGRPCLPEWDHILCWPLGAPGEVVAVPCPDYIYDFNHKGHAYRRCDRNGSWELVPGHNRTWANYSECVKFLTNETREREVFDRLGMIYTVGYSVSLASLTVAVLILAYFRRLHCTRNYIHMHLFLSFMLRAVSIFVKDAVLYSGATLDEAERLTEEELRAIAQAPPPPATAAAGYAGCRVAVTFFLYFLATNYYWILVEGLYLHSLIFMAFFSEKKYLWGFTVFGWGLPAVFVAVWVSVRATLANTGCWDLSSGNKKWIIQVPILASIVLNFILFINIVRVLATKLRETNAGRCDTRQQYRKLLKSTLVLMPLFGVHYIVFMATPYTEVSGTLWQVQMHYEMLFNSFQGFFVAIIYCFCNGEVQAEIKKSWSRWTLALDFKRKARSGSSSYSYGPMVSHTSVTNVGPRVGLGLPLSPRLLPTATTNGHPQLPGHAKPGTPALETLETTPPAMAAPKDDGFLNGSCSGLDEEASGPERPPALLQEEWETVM
UniProt Q9BV86: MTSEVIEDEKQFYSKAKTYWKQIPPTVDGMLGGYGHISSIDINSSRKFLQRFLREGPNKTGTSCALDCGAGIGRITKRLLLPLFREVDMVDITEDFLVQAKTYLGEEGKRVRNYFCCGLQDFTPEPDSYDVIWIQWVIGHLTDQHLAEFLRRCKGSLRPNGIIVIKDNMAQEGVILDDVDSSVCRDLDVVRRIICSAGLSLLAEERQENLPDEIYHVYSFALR
UniProt Q9GZX7: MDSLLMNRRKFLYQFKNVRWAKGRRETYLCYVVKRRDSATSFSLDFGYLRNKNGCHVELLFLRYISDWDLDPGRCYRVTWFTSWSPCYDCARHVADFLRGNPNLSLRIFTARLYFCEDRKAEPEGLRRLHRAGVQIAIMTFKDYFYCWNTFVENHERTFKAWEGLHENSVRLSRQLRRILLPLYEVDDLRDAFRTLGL
UniProt P00784: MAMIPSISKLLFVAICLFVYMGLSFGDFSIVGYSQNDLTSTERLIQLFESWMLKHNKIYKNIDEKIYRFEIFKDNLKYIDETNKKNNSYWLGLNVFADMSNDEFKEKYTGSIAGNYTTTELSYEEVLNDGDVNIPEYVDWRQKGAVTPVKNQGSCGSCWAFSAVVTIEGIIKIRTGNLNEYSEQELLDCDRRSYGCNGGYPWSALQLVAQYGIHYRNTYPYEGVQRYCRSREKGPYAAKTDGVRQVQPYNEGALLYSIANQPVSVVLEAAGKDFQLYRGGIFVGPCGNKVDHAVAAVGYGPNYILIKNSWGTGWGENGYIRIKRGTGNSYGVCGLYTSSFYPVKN
UniProt C7C422: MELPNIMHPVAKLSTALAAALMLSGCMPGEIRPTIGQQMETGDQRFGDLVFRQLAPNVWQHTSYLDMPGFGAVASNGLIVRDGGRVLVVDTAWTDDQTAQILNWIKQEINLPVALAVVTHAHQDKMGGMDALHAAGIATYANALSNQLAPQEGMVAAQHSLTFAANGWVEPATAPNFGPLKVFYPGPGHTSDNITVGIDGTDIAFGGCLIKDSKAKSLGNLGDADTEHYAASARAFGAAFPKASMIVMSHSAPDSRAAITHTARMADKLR

How the values were obtained:
[1] = Natriuretic polypeptide receptor (hNpr1) antagonism - Pilot counterscreen GloSensor control cell line (AID 1347045; calls by dose curve; note: % is set by controls: 0 for no effect and ±100 for the full control effect); conditions: GloSensor cAMP control cell line, luminescence counterscreen; at 38.3 µM (top of the series)
Procedure, shortened: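 HEK293 cGMP GloSensor cells preloaded 2 h with 2% GloSensor reagent, then compound 30 min before baseline luminescence read. Stimulated with 50 uM sodium nitroprusside, 20 min at room temperature, then read again; counterscreen for Npr1 antagonism.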

[2] = target: Atrial natriuretic peptide receptor 1 (Homo sapiens) (UniProt P16066); test: Natriuretic polypeptide receptor (hNpr1) antagonism - Pilot screen (AID 1347049; calls by dose curve;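 note: agonist-evoked cGMP luminescence read 20 min after hNppA addition; % is set by controls: 0 for no effect and ±100 for the full control effect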); conditions: hNpr1 cells, antagonist mode cGMP read-out; at 57.5 µM (top of the series)
Procedure, shortened: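 Readout is cGMP-driven firefly luciferase luminescence in HEK293 cells carrying hNpr1 and a PDE5-domain GloSensor, read before and 20 min after 0.1 nM hNppA stimulation. Cells had 2% substrate reagent for 2 h and test compound for 30 min.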

[3] = target: Atrial natriuretic peptide receptor 2 (Homo sapiens) (UniProt P20594); test: Natriuretic polypeptide receptor (hNpr2) antagonism - Pilot subtype selectivity assay (AID 1347050; calls by dose curve; note: % is set by controls: 0 for no effect and ±100 for the full control effect); conditions: NPR2-expressing cells, cGMP antagonist-mode read-out; at 38.3 µM (top of the series)
Procedure, shortened: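 Pilot selectivity screen against hNpr2: HEK293 cGMP-sensor cells are treated with LOPAC1280 compounds, then with hNppC peptide at 1 nM final. The cGMP-driven luminescence change over 20 min at room temperature is the read-out.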

[4] = target: T1, Tyrosine-protein phosphatase non-receptor type substrate 1 (Homo sapiens) + Leukocyte surface antigen CD47 (Homo sapiens) (UniProt P78324+Q08722); test: CD47-SIRPalpha protein protein interaction - LANCE assay qHTS validation (AID 1347057; active = well fitted curve in the direction sought with a large enough effect in the signal ratio, with a control signal flat, not every such curve was filed as active; the % refers to the signal ratio; note: 0% is about no effect); conditions: Recombinant CD47-His / biotin-SIRPalpha, TR-FRET ratio; at 38.3 µM (top of the series)
Procedure, shortened: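 First, His-tagged CD47 and Eu-labelled anti-His antibody met the compound for 30 min; next, site-specifically biotinylated SIRPalpha was added for 30 min; finally streptavidin-APC was added before reading the TR-FRET ratio.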

[5] = target: T1, Tyrosine-protein phosphatase non-receptor type substrate 1 (Homo sapiens) + Leukocyte surface antigen CD47 (Homo sapiens); test: CD47-SIRPalpha protein protein interaction - HTRF assay qHTS validation (AID 1347058; active = well fitted curve in the direction sought with a large enough effect in the signal ratio, not every such curve was filed as active; the % refers to the signal ratio;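 note: recombinant soluble extracellular CD47 with His tag and biotinylated SIRPalpha domains; 0% is about no effect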); conditions: TR-FRET HTRF CD47-His / biotin-SIRPalpha binding, ratio 665/615; at 38.3 µM (top of the series)
Procedure, shortened: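 TR-FRET read (Ch1/Ch2 ratio) of soluble extracellular CD47 and Avi-biotinylated SIRPalpha domains in PBS pH 7.4 with 0.05% IGEPAL; 7-point compound titration. Sequential 30 min room-temperature steps; non-biotinylated SIRPalpha as control inhibitor.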

[6] = target: T1, Tyrosine-protein phosphatase non-receptor type substrate 1 (Homo sapiens) + Leukocyte surface antigen CD47 (Homo sapiens); test: CD47-SIRPalpha protein protein interaction - Alpha assay qHTS validation (AID 1347059); conditions: AlphaScreen CD47-His/biotin-SIRPalpha binding, LOPAC; at 38.3 µM (top of the series);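 note: bead proximity luminescence from CD47 binding SIRPalpha after compound preincubation with SIRPalpha; % is set by controls: 0 for no effect and ±100 for the full control effect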
Procedure, shortened: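 Binding is measured by AlphaScreen proximity: Ni-NTA acceptor beads capture His-CD47, streptavidin donor beads capture biotin-SIRPalpha. Each of three additions (SIRPalpha with compound, CD47, beads) incubates 30 min at room temperature protected from light.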

[7] = target: Parathyroid hormone/parathyroid hormone-related peptide receptor (Homo sapiens) (UniProt Q03431); test: qHTS for PTHR1 Agonists: Optimization Screen against the NCGC LOPAC library (AID 1347079); conditions: HEK293 GP2 PTHR1 GloSensor cAMP luminescence, 1 h; at 57.1 µM (top of the series);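 note: GloSensor cAMP luminescence in HEK-293 GP2 cells expressing human PTHR1 with IBMX; 0% is about no effect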
Procedure, shortened: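 Agonist readout: GloSensor cAMP luminescence, read after 15 min at room temperature. HEK-293-derived GP2 line carries PTHR1; compounds tested as a titration for 1 hr at 37C in presence of IBMX. M-PTH (1-15) served as control.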

[8] = target: N-terminal Xaa-Pro-Lys N-methyltransferase 1 (Homo sapiens) (UniProt Q9BV86); test: qHTS Assay for Inhibitors of N-terminal methyltransferase 1 (NTMT1): LOPAC validation of the NTMT1 SAHH-coupled ThioGlo3 Assay (AID 1347143); conditions: recombinant NTMT1, SAHH-coupled ThioGlo3 fluorescence; at 114 µM (top of the series);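 note: SAH from peptide methylation measured as thiol fluorescence via SAHH coupling and ThioGlo3; % is set by controls: 0 for no effect and ±100 for the full control effect; nearly all actives have a fitted effect of over 70% in size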
Procedure, shortened: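 Inhibition of NTMT1 methylation of peptide SPKRIA is followed by converting SAH with SAHH and labelling the released thiol with ThioGlo3. Plates are read at 340/450nm before and 30 min after reagent addition, both at room temperature.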

[9] = qHTS to identify inhibitors of the type 1 interferon - major histocompatibility complex class I in skeletal muscle: primary screen against the NCATS LOPAC collection (AID 1347405); conditions: iHSKM muscle cells, IFN-b-induced MHC-I HiBiT luminescence, 24 h; at 45.9 µM (top of the series)
Procedure, shortened: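 CRISPR-engineered immortalized human myoblasts (C25cl48) with HiBiT fused to endogenous HLA-B*08:01, stimulated with 4 ng/ml IFN-beta. LOPAC compounds tested as a 7-point 1:4.3 titration (top 46 uM final), 24 h at 37 C; lytic HiBiT luminescence read.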

[10] = qHTS for inhibitors of adenylyl cyclases using a fission yeast platform: a pilot screen against the NCATS LOPAC library (AID 1347410);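 note: plate controls were DMSO vehicle for no effect and DPI positive control for full effect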; conditions: S. pombe CHP2027, fbp1-GFP fluorescence, 18 h, yeast expressing mammalian AC9 and human GNAS; at 57.5 µM (top of the series)
Procedure, shortened: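 Fission yeast qHTS: CHP2027 cells (AC9-GNAS-PDE4D2, fbp1-GFP), 5x10^6 cells/mL working density, EMM + His/Lys/Ura; LOPAC at up to 57 µM final; 18 h dark, 30C; GFP by laser cytometry. DPI positive control, DMSO vehicle.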

[11] = Validation qHTS assay for inhibitors of Activation Induced Cytidine Deaminase (AID): UDG Counterscreen signal (AID 1347427); conditions: biochemical UDG counterscreen, fluorescence signal; at 115 µM (top of the series); note: 0% is about no effect
Procedure, shortened: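 Counterscreen read of UDG activity (2 U/mL, 4/3x) in the FRET deamination format with AID (1 uM, 4/3x), DJC20/DJC23 substrates (250 nM, 4x), 4 h at room temperature. NaOH stop, fluorescence at 560 ex/665 em.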

[12] = target: Single-stranded DNA cytosine deaminase (Homo sapiens) (UniProt Q9GZX7); test: Validation qHTS assay for inhibitors of Activation Induced Cytidine Deaminase (AID): AID signal (AID 1347429); conditions: Recombinant AID, FRET ssDNA deamination with UDG, fluorescence; at 115 µM (top of the series); note: % is set by controls: 0 for no effect and ±100 for the full control effect
Procedure, shortened: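 FRET deamination assay: 1 uM AID (4/3x stock) with UDG, compound up to 114 uM, then 250 nM DJC20/DJC23 substrate (4x stock) for 4 hr at room temperature. NaOH added, 30 min; fluorescence read 540/590 nm.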

[13] = Primary qHTS for small molecule stabilizers of the endoplasmic reticulum resident proteome: Secreted ER Calcium Modulated Protein (SERCaMP) assay (AID 1508630); conditions: SH-SY5Y GLuc-SERCaMP (Gaussia luciferase released on ER calcium loss) secretion, thapsigargin, luminescence; at 38.4 µM (top of the series); note: % is set by controls: 0 for no effect and ±100 for the full control effect
Procedure, shortened: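 GLuc-SERCaMP-expressing SH-SY5Y cells, pretreated 16 h with compound, are challenged with thapsigargin to empty ER calcium stores; after 4 h, coelenterazine is added directly to the medium and luminescence is imaged.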

[14] = target: Papain (Carica papaya) (UniProt P00784); test: Primary qHTS assay for inhibitors of the protease papain (AID 1645873); conditions: papain Z-FR-AMC cleavage, AMC fluorescence; at 49.8 µM (top of the series)
[15] = target: Metallo-beta-lactamase type 2 (Klebsiella pneumoniae) (UniProt C7C422); test: qHTS to identify inhibitors of the New Delhi Metallo-beta-lactamase (NDM): assay validation screen against the NCATS LOPAC Collection (AID 1794843); conditions: NDM-1 enzyme, nitrocefin hydrolysis, absorbance 485 nm; at 38.4 µM (top of the series)
Procedure, shortened: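 Enzyme 2 nM final, 50 mM HEPES pH 7.0, 1 uM ZnSO4, 0.01% Tween20; cpds in DMSO, preincub w/ enzyme; + nitrocefin (50 uM stock); A485 at plateau; no-enzyme column as blank.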

CN(C(=O)Cc1ccccc1)[C@@H]1CC[C@]2(CCCO2)C[C@H]1N1CCCC1
inactive: activity change, negative = inhibition [1] 14.6% | activity change, negative = inhibition [2] 10.9% | activity change, negative = inhibition [3] 0.0328% | activity change, negative = inhibition [4] 4.29% | activity change, negative = inhibition [5] 1.06% | activity change, negative = inhibition [6] 0.472% | activation [7] 36.1% | activity change, negative = inhibition [8] -2.78% | activity change, negative = inhibition [9] -22.4% | activity, positive = inhibition (GFP gain) [10] -0.438% | activity, negative = inhibition [11] 12.4% | activity change, negative = inhibition [12] 34.1% | activity change, negative = inhibition [13] -10.1% | activity change, negative = inhibition [14] -8.73% | activity change, negative = inhibition [15] -6.82%
